Reference: paper PMC11150675, “Simultaneous determination of multiple components in rat plasma by UPLC-MS/MS for pharmacokinetic studies after oral administration of Pogostemon cablin extract” (Frontiers in Pharmacology, 2024)

Test: PK study in rats after single oral administration of Pogostemon cablin (PC) extract, plasma analysed by UPLC-MS/MS
Settings: rat plasma
[1] = PC extract 4.0 g/kg single oral dose, n = 6

## β-rhamnocitrin
[1]
  AUC (0-tn): 111.9 ± 37.7 ng·h/mL
  Tmax: 30 ± 18 min
PC extract oral, Figure 2
  shape of plasma concentration-time curve: double-peak phenomenon
